Measurements reported in publication PMC3492761 (Journal of medicinal chemistry, 2012).
Like-named read-outs stand apart in the source and are kept apart here.

Columns and labels:
[1] = system: A/WSN/33 (H1N1) influenza virus; settings: mouse, in vivo, po; for survival and body weight of infected mice: 10 mg/kg/day; for protection of infected mice: 0.1 mg/kg/day
[2] = system: influenza A/CA/04/2009 (H1N1) virus; settings: mouse, in vivo, po; for protection of infected mice: 0.1 mg/kg/day

| Compound | survival and body weight of infected mice [1] | protection of infected mice [1] | protection of infected mice [2] | body weight recovery ([2]; 1 mg/kg) | body weight recovery ([2]; 10 mg/kg) | protection activity in mice survival ([1]; 1 mg/kg/day) |
| --- | --- | --- | --- | --- | --- | --- |
| CCC(CC)O[C@@H]1C=C(P(=O)(O)O)C[C@H](N)[C@H]1NC(C)=O [3a, tamiphosphor] | the mice survived |  |  |  |  |  |
| CCOP(=O)(O)C1=C[C@@H](OC(CC)CC)[C@H](NC(C)=O)[C@@H](N)C1 | the mice survived | partial protection |  |  |  |  |
| CCC(CC)O[C@@H]1C=C(P(=O)(O)O)C[C@H](NC(=N)N)[C@H]1NC(C)=O [4a, guanidino-tamiphosphor] | the mice survived |  | no significant protection | not observed | slow and slight |  |
| CCOP(=O)(O)C1=C[C@@H](OC(CC)CC)[C@H](NC(C)=O)[C@@H](NC(=N)N)C1 | the mice survived | partial protection | no significant protection | not observed | slow and slight | better protection activity in mice survival than other compounds |
